In patent publication US11576947B2, “Oral composition and method” (Kunming Lanchie Dental Hospital, LTD, priority 2019, dated 2023):

Experiments:
[1] = Stability test in aqueous system (Brilliant Blue color dissipation); assay type: physicochemical; settings: water, 2.76% carbamide peroxide, 0.002% Brilliant Blue; compound amount 0.1%; 60 days, room temperature
[2] = Stability test in propylene glycol (Brilliant Blue color dissipation); assay type: physicochemical; settings: 2.76% carbamide peroxide, 0.002% Brilliant Blue, compound amount 0.1%, 60 days, room temperature
[3] = System stability evaluation: compatibility of ingredients with peroxide source and the system

Sodium monofluorophosphate
Color (color fading grade) [1]: +
Color (color fading grade) [2]: +
Compatibility with the system (cationic biocide and peroxide source) [3]: not compatible
Effect on peroxide and system stability ([3]; summary of testing of Tables 2 and 3): activate the peroxide and make the system unstable
